## scFv variants of Ab-14 (light chain) against a SARS-CoV-2 spike peptide

Target peptide (SARS-CoV-2 spike, HR2 region): PDVDLGDISGINAS

Ab-14 is the parent antibody, in scFv form: VH, then a 15-residue (Gly4Ser)3 linker, then VL. The heavy chain is unchanged in all variants.
VH: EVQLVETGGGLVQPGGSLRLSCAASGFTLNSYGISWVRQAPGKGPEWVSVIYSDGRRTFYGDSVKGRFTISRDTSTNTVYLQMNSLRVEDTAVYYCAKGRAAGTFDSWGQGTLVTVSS
VL: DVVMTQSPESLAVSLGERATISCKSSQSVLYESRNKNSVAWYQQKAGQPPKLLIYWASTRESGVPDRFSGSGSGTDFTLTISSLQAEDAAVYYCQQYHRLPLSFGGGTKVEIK

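The starting antibody came from a phage panning campaign against this peptide. This is the validation round: designs drawn from the data on random variants, tested in the same kind of assay. Their group label is 14L_En_Gen (En: ensemble of fine-tuned language models; Gen: genetic algorithm). The scFvs were displayed on barcoded MATa yeast, the peptide on MATalpha yeast. After mating in shaken culture at 30 °C for 16 h, diploids were selected and their barcode pairs sequenced. The ratio of observed to expected reads was calibrated, replicate by replicate, on BCL2-family standards whose Kd was known from biolayer interferometry. Each pool was mated in six replicate cultures.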

Variants are written as CDR1, CDR2 and CDR3 of the light chain (limits as in the source). Parent: KSSQSVLYESRNKNSVA, WASTRES, QQYHRLPLS. Affinities are written as log10 Kd with Kd in nM; a lower number is a better binder. Where no diploid with the target was found in that replicate, the entry reads "ND": below detection, most likely a poor binder, though not proof of it.

CDR-L1 | CDR-L2 | CDR-L3 | replicates, log10 nM | signal with controls
KLSLIMRLESKNKSNIA | EVNERSE | QQYDRLPLS | 0.83 0.68 0.41 0.61 0.69 0.96 | 1 of 18 (2.91)
TISQMSTLFSQSINNVA | EVSTRLN | QQYDRLPLV | 0.35 0.60 0.58 0.66 0.19 1.11 | 0 of 18
IVSQLMLWGMHAKNSIA | EAEKRIN | QQYHRLPLI | ND 2.21 2.95 1.93 ND 3.19 | 0 of 18
NLAGMTAHESVKNSNVA | ERSTREK | QQYNRLPLS | 0.93 0.94 0.98 0.56 0.72 0.74 | 0 of 18
TISQMTSLFSQSINNVA | EVSTREP | QQYDRLPLT | 1.04 1.11 0.72 0.55 0.58 1.11 | 1 of 18 (2.09)
MISQVLNMLTREGNNVA | DLKERED | QQYFRLPLS | ND ND ND ND ND ND | 0 of 18
MISQLYNMGQFAKNSVA | QASERNA | QQYDRLPLI | 1.41 0.59 1.09 1.03 0.72 1.51 | 1 of 18 (3.19)
TLYGLSMSMSKNKNNVA | EMSTREN | QQYDRLPLA | 0.21 0.57 0.19 0.28 0.22 0.48 | 2 of 18 (3.25)
HITYGMQVAGRHSKSIA | QAEERAK | QQYDRLPLS | 0.34 0.15 0.15 0.19 0.18 0.43 | 2 of 18 (2.71)
TISMLMNHMTRNTNNVA | NMDMRED | QQYDRLPLS | 0.25 0.04 -0.10 0.23 -0.09 0.42 | 0 of 18
HITYGMMVAGRHSSSIA | QAETRAK | QQYDRLPLM | 0.70 0.48 0.48 0.48 0.74 0.82 | 3 of 18 (2.59)
KVSEFMRGLMSKQDSIA | DNVTRNS | QQYDRLPLS | 1.90 ND ND 2.36 2.58 3.01 | 1 of 18 (2.55)
KFSQMANQFSVSMNAVA | EMSTRES | QQYNRLPLA | ND ND ND ND ND ND | 0 of 18
KFSQMVNSMSVSKSAVA | EMSTRPE | QQYNRLPLS | 0.66 0.58 0.51 0.18 0.61 0.57 | 0 of 18
KFSQMANQFSVSMNAVA | EMSTRED | QQYNRLPLA | 0.53 0.67 0.40 0.32 0.44 0.86 | 0 of 18
MISQLYNMGQFAINSVA | QASNRNE | QQYDRLPLM | ND 1.41 ND ND 2.14 1.62 | 0 of 18
MVTQMAMTGMKNKRSVA | NATMREY | QQYHRLPLI | 3.14 1.38 1.44 1.50 1.45 2.11 | 2 of 18 (2.58)
MISQLMNLGQFAINSVA | QAEIRNN | QQYDRLPLI | ND 1.42 ND 1.71 1.84 1.72 | 0 of 18
KIGDTLNQLMTKRNNVA | DLVEREN | QQYFRLPLS | 0.24 0.12 -0.02 -0.11 0.16 0.22 | 2 of 18 (3.15)
MISQLYNMGQFAINSVA | QASIRND | QQYDRLPLI | 1.84 1.84 1.76 1.12 1.33 1.51 | 0 of 18
KLTMITGLEKVIGNNVA | EMETRER | QQYNRLPLS | 1.75 1.19 0.94 0.52 0.64 0.73 | 0 of 18
TISMLMNHMTRNSNNVA | NMDMRED | QQYDRLPLS | 0.43 0.15 -0.10 -0.14 0.00 0.46 | 1 of 18 (1.85)
SISGFMKSLAAHRNSVA | DMTNREN | QQYDRLPLS | 0.38 0.08 -0.11 -0.05 0.11 0.37 | 0 of 18
KIGMTLNQLLHQKNNVA | DLVEREN | QQYHRLPLS | 0.36 0.31 0.45 0.37 0.12 0.40 | 2 of 18 (2.26)
KIGMTLNQLQHQKNNVA | DLVMREK | QQYHRLPLS | 1.01 0.43 0.54 0.42 0.58 0.52 | 0 of 18
KLSGLMRVEQKKSNSIA | EMTTRGK | QQYDRLPLS | 1.07 1.48 1.34 0.95 0.61 1.50 | 0 of 18
HMSMLTLQGMRHRNSVA | QMTTREK | QQYDHLPLS | 2.20 1.50 1.55 1.66 1.88 2.81 | 2 of 18 (2.12)
SIGGFMKSSMAHMNSVA | DMTNRED | QQYDRLPLS | 0.75 0.52 0.27 0.34 0.48 0.64 | 3 of 18 (3.67)
KLSMITNHMQQSKNNVA | EMVTREN | QQYNRLPLS | 0.72 0.65 0.56 0.30 0.89 0.88 | 0 of 18
MISQLYNMGTFAINSVA | QATIRNS | QQYDRLPLV | ND 2.59 ND ND ND ND | 1 of 18 (2.27)
IIDQIMYHGNKHVNSIA | QASQRLN | QQYHHLPLF | 1.15 1.63 1.31 1.70 1.90 2.13 | 0 of 18
MLGGNLMHEMMAKNNVA | HMTTRVE | QQYHRLPLI | 2.03 2.19 2.16 1.33 2.40 2.12 | 0 of 18
MVSQLMLWGLHAKYSIA | EAQTRLN | QQYDRLPLF | ND ND 1.05 ND 0.90 ND | 0 of 18
MISQLYNLGQFAINSVA | QASERNN | QQYDRLPLT | 0.80 1.08 2.08 1.20 0.97 1.47 | 0 of 18
IVSQLMLIGMHAKNSIA | EAETRIN | QQYHRLPLI | ND ND ND 4.79 2.54 ND | 0 of 18
HITYGMQVAGRHSKSIA | QAETRMK | QQYDRLPLS | ND ND ND ND ND ND | 0 of 18
IVSQLMLWGLHAKNSIA | EAAMRLN | QQYDRLPLF | ND ND ND ND ND ND | 0 of 18
KIGLTLNTLMHQKNNVA | DLVEREN | QQYYRLPLS | 1.19 0.99 0.66 0.65 0.86 1.44 | 1 of 18 (4.57)

3 of these entries, quoted again:

| CDR-L1 | CDR-L2 | CDR-L3 | replicates, log10 nM | signal with controls |
|---|---|---|---|---|
| IIDQIMYHGNKHVNSIA | QASQRLN | QQYHHLPLF | 1.15 1.63 1.31 1.70 1.90 2.13 | 0 of 18 |
| TISMLMNHMTRNTNNVA | NMDMRED | QQYDRLPLS | 0.25 0.04 -0.10 0.23 -0.09 0.42 | 0 of 18 |
| MISQLYNMGQFAKNSVA | QASERNA | QQYDRLPLI | 1.41 0.59 1.09 1.03 0.72 1.51 | 1 of 18 (3.19) |

The parent sequence was in this pool as ten entries: three were never detected, three once, and four in most replicates, with averages from 0.34 to 2.37. The authors averaged sequences with at least three values out of six and counted those with two or fewer as poor binders. Nonspecific signal, from three strains lacking the peptide, appeared in 4% of pairings of all light chain designs, centred on 2.64 (5% of these signals below 1.59); values are not corrected for it. Also given: how often the same scFv was detected with the empty control strains, with their mean in brackets. The range of this assay differs from that of the first round, and the authors advise against merging the two.

The measurements come from Li et al. 2023 (doi:10.1038/s41467-023-39022-2) through the FLAb antibody collection.